Consider 28 compounds from PubChem BioAssay AID1631 (National Center for Advancing Translational Sciences (NCATS), 2009).

Amino acid sequences for entries named in this document (tags omitted).
UniProt P14618, whole entry: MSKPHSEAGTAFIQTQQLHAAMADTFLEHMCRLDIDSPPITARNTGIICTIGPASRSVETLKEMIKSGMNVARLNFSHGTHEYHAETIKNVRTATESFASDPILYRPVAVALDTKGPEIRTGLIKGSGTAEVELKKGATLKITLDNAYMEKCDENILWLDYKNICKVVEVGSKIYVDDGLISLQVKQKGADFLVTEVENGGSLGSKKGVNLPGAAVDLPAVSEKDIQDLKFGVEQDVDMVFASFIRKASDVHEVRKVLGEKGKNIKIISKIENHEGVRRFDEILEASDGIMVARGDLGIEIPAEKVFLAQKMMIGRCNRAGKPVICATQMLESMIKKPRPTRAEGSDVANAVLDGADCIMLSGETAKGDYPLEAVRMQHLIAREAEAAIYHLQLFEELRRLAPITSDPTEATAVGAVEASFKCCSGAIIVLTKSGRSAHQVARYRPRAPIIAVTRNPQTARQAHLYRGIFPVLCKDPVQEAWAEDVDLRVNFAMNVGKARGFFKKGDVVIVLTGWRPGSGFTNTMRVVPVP

This is a selection; strong and weak results do not stand in their true shares. Activity calls are given as the source filed them. The call rests on the fitted dose curve; in most records, active means well fitted activation curve with a large enough effect; inconclusive means small, poorly fitted or top-dose-only effect; inactive means no such curve, though single readings can be large or run the other way.
On the % scale 0 is the no-effect control and ±100 the full control effect.

This assay addresses Pyruvate kinase PKM (Homo sapiens) (UniProt P14618). Nature of the assay: qHTS Assay for Activators of Human Muscle isoform 2 Pyruvate Kinase. Further: nearly all actives have a fitted effect of over 55% in size. The note with it: purified PKM2, Kinase-Glo ATP luminescence, 0% is enzyme alone, no compound; at 57.5 µM (top of the series) unless noted. An excerpt: NIH Chemical Genomics Center [NCGC] Matthew G. Vander Heiden, M.D., Ph.D. [Harvard Medical School, 77 Avenue Louis Pasteur, Boston, MA 02115] MLPCN Grant: 1 R03 MH085679-01 NCGC Assay Overview: Human pyruvate kinase muscle 2 (hPK-M2) enzyme was supplied as a highly purified (>95% pure) preparation from Harvard Medical School and assayed for its ability to generate ATP from ADP using phosphoenolpyruvate (PEP) as a substrate. ATP generation was detected in a coupled reaction by luciferase-mediated luminescence, an ATP-dependent process. […] The enzyme was assayed at an intermediate level of activity to screen for both inhibitors and activators.
NCGC Assay Protocol Summary: Three uL of substrate mix (at r.t.) in assay buffer (50 mM Imidazole pH7.2, 50 mM KCl, 7 mM MgCl2, 0.01% Tween 20, 0.05% BSA) was dispensed into white solid bottom 1,536 well microtiter plates so that the final concentrations of substrates in the assay were 0.1 mM ADP and 0.5 mM PEP. 23 nL of compound were delivered by a pin tool and 1 uL of enzyme mix in assay buffer (4 degree Celsius) was added. Plates were incubated at room temperature for 1 hour. Two uL of detection mix (Kinase-Glo, Promega; at 4 degree Celsius protected from light) was added and luminescence read by a ViewLux (Perkin Elmer) at 5 second exposure/plate. Data were normalized to the uninhibited and AC100 inhibition (no enzyme). To monitor activation, the first column contained a titration of the activator, NCGC00031955-01 (16-point 1:2 dilutions in duplicate starting at 57 uM) and the first 16 rows of column 4 contained 57 uM of NCGC00031955-01.
For the compound `CCCN1CCC(Nc2cc(OC)cc(OC)c2)CC1`, the activation was inactive: -0.216% [at 11.5 µM].
`c1ccc(CN2CCC(Nc3ccccc3)CC2)cc1`: the activation is inactive: -7.64%.
The result for `CCOC(=O)C(CC)C1=NC(C)(C)Cc2ccccc21.O=[N+]([O-])c1cc([N+](=O)[O-])c(O)c([N+](=O)[O-])c1` (stereo not drawn) reads inactive: 1.59%.
For the compound `N#Cc1ccc(C(=O)NCC2(N3CCCCC3)CCCCC2)cc1`, the activation is inactive: 0.736%.
As for `O=C(O)c1cccc(Nc2c([N+](=O)[O-])cc([N+](=O)[O-])cc2[N+](=O)[O-])c1`, the activation is inactive: -11.4%.
The result for `O=C(OC1CN2CCC1CC2)C1c2ccccc2C=Cc2ccccc21` (stereo not drawn) reads inactive: 1.26%.
As for `N/C(=N\O)c1c(N)no[n+]1[O-]`, the figure is inactive: -2.94%; as for `CCOC(=O)N1CCC(Nc2ccc(C)cc2)CC1`, inactive: -0.795% [at 11.5 µM]; as for `COc1ccc(C(=O)NCC2(N3CCOCC3)CCCCC2)cc1OC`, inactive: 3.19%.
On to `CCCOc1ccc(C)cc1CN(CCCl)CCCl`, for which the activation was inactive: -0.685%.
Consider `CN1CCC(Nc2ccc(Cl)cc2)CC1`, for which the activation was inactive: 5.3%.
Turning to `CCC(CO)(C(=O)OC1CN2CCC1CC2)c1ccccc1` (stereo not drawn), the activation is inactive: -0.759%.
`COc1cc(OC)cc(C(=O)NCC2(N3CCOCC3)CCCCC2)c1`: the activation is inactive: 1.05%.
In the case of `CC(C)(C)OC(=O)N1CCC(Nc2ccccc2)CC1`, the activation is inactive: 5.67%.
For the compound `CN1CCC(Nc2ccc(F)c(Cl)c2)CC1`, the activation is inactive: 2.03% [at 11.5 µM].
As to `CCOc1ncccc1C(=O)NCC1(N2CCOCC2)CCCCC1`, the activation is inactive: -0.156%.
With `CCN1CCC(Nc2cccc(F)c2)CC1`, the activation is inactive: 0.933%.
As for `Fc1ccccc1NC1CCN(Cc2ccccc2)CC1`, the figure is inactive: 4.03%.
`Cc1ccc(OCC(C)C)c(CN(CCCl)CCCl)c1`: the activation was inactive: -0.436%.
For `CCOC(=O)N1CCC(Nc2cccc(C)c2)CC1`, the activation is inactive: 5.16%.
As for `COc1ccc(NC2CCN(CCc3ccccc3)CC2)c(OC)c1`, the figure is inactive: 2.7%; as for `CCOC(=O)N1CCC(Nc2ccc(F)cc2)CC1`, inactive: -19.1%; as for `O=C(NCC1(N2CCCCC2)CCCCC1)c1ccc(F)cc1`, inactive: 0.0454%.
As for `CCOc1ccc(C)cc1CN(CCCl)CCCl`, the activation is inactive: -0.929%.
The result for `CCOC(=O)N1CCC(Nc2ccc(OC)cc2)CC1` reads inactive: -0.149%.
As for `O=C(OC1CN2CCC1CC2)C1c2ccccc2Oc2ccccc21` (stereo not drawn), the figure is inactive: -0.1%; as for `N#CC1(Nc2ccccc2)CCN(Cc2ccccc2)CC1`, inactive: -2.58%; as for `O=C(NCC1(N2CCOCC2)CCCCC1)c1cc2ccccc2o1`, inactive: -5.91%.
